Experimental findings from PubChem BioAssay AID624267 (The Scripps Research Institute Molecular Screening Center, 2012) are described below.

By UniProt entry, the sequences of proteins in these tests, tags left out.
UniProt O43353, whole entry, looked up: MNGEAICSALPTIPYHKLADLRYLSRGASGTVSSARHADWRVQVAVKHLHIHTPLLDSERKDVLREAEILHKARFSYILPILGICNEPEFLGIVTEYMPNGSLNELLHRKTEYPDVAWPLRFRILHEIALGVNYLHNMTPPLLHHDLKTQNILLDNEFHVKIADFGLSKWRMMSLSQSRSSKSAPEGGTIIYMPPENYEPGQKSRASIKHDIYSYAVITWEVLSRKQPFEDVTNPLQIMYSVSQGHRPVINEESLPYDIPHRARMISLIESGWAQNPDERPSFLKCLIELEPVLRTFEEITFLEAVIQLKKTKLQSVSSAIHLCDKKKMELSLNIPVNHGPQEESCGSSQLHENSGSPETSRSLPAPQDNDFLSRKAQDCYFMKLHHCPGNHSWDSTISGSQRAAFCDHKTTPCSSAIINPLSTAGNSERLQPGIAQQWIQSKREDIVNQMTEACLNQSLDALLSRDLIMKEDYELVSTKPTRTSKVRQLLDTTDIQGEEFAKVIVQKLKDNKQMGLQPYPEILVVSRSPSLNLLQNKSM

This is a selection; strong and weak results do not stand in their true shares. The source made the active and inactive calls. Rule as the data show it: active = inhibition above about 21%; inactive = the rest.

The assay deals with Receptor-interacting serine/threonine-protein kinase 2 (Homo sapiens) (UniProt O43353). The assay can be described thus: inhibitors of RIPK2 association with NOD2 – fluorescence, CHO cells, BLA complementation, primary screen (AID 624267).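 Also: 0% = vehicle only and 100% = reference blocker.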 The conditions noted are these: CHO BLA complementation NOD2-RIPK2, CCF4 ratio; at 4.98 µM; stronger effect = higher value.
As for `CC(C)NC(=O)NP(=O)(Oc1ccccc1)Oc1ccccc1`, the inhibition was inactive: -4.67%.
On to `CCN(CC)C(=S)SC(NC=O)C(Cl)(Cl)Cl` (centres undefined), for which the inhibition was inactive: -3.9%.
To `O=C(OC1CN2CCC1CC2)c1cccc2[nH]cnc12` (centres undefined) belongs inactive: -2.32%; to `O=[N+]([O-])c1cc([N+](=O)[O-])c(-c2ccn[nH]2)s1`, inactive: -5.85%; to `ClCCSc1nnc(-c2cccnc2)o1`, inactive: -4.4%.
Take `COC(=O)C1(C)COP(=O)(N2CCCCCC2)OC1` (centres undefined): the inhibition was inactive: -3.41%.
Consider `CC(C)c1ccc(OP(=O)(Nc2ccccn2)Oc2ccccc2F)cc1` (centres undefined), for which the inhibition is inactive: -29.6%.
For `[N-]=[N+]=NC1CCCCC1NC(=O)c1cc([N+](=O)[O-])cc([N+](=O)[O-])c1` (centres undefined), the inhibition is inactive: -9.42%.
`Cc1ccc(OP(=O)(Nc2ccc([N+](=O)[O-])cn2)Oc2ccc(C)cc2)cc1`: the inhibition is inactive: 0.49%.
Consider `Cc1ccc2nc3c(c(C)c2c1)CC(C(Cl)Cl)S3` (centres undefined), for which the inhibition was inactive: -1.45%.
In the case of `C[As](=O)(O)c1cccc(C(=O)O)c1` it was inactive: 9.59%; in that of `O=[As](O)(c1ccc(O)cc1)c1ccccc1O`, inactive: 5.7%; in that of `O=[N+]([O-])c1ccc(-c2cc([N+](=O)[O-])c(O)c([N+](=O)[O-])c2)cc1`, inactive: -58.9%.
For the compound `COc1cc(C(=O)NCC2(N3CCOCC3)CCCCC2)ccc1OCC(C)C`, the inhibition was inactive: -13.2%.
In the case of `O=[N+]([O-])c1cc(Oc2ccc([N+](=O)[O-])cc2C(F)(F)F)cc([N+](=O)[O-])c1` it was inactive: -0.68%.
`COc1ccc(N/C(=N/P(=O)(N2CCOCC2)N2CCOCC2)N2CCOCC2)cc1`: the inhibition is inactive: -3.87%.
For `O=P1(N(CCCl)CCCl)OCCCN1CCCl` (centres undefined), the inhibition is inactive: -6.09%.
For the compound `O=P1(N(CCCl)CCCl)Nc2ccccc2N1`, the inhibition was inactive: -0.4%.
On to `COc1ccc2nc(NP(=O)(c3ccccc3)c3ccccc3)sc2c1`, for which the inhibition was inactive: 5.91%.
`COc1cc(I)ccc1[As](=O)(O)O`: the inhibition was inactive: 0.8%.
Take `Cc1c2c(nc3ccccc13)SC(C(Cl)Cl)C2` (centres undefined): the inhibition is inactive: -1.27%.
In the case of `O=C(OC1CN2CCC1CC2)C12CC3CC(CC(C3)C1)C2` (centres undefined) it was inactive: -2.12%; in that of `Cc1cc(=O)[nH]c(N[N+](=O)[O-])n1`, inactive: -1.77%.
Consider `CCC(C)N(CC(C)C)C(=S)SC(NC(C)=O)C(Cl)(Cl)Cl` (centres undefined), for which the inhibition was inactive: -1.91%.
For the compound `O=C(OC1CN2CCC1CC2)c1cccc([N+](=O)[O-])c1` (centres undefined), the inhibition was inactive: -3.11%.
Regarding `CSc1ccc(Nc2c([N+](=O)[O-])cc([N+](=O)[O-])cc2[N+](=O)[O-])cc1`, the inhibition was inactive: 3.63%.
Take `CCOC(=O)c1ccc(NC(=O)C(C)(CCl)SC)cc1` (centres undefined): the inhibition is inactive: 5.83%.
In the case of `O=C(O)C(=O)c1ccc(N(CCCl)CCCl)cc1` it was inactive: 0.51%.
In the case of `O=C(COc1ccccc1)OC1CN2CCC1CC2` (centres undefined) it was inactive: -8.78%; in that of `O=C(Nc1ccncc1[N+](=O)[O-])c1ccc([N+](=O)[O-])cc1[N+](=O)[O-]`, inactive: 2.79%; in that of `COP1(=S)c2c(C)nn(CCC#N)c2N=C(c2ccc(F)cc2)N1C` (centres undefined), inactive: -7.33%.
`COC(=O)C1(C)COP(=O)(N2CCCC2)OC1` (centres undefined): the inhibition was inactive: -6.95%.
Regarding `O=P(Nc1ccccn1)(c1cccc2ccccc12)c1cccc2ccccc12`, the inhibition is inactive: -4.35%.
In the case of `Cc1cc(SC(NC=O)C(Cl)(Cl)Cl)ncn1` (centres undefined), the inhibition is inactive: -2.95%.
In the case of `O=[N+]([O-])c1ccc(Nc2ccc(Oc3ccc([N+](=O)[O-])cc3[N+](=O)[O-])cc2)c([N+](=O)[O-])c1` it was inactive: 1.93%; in that of `CCOC(=O)Nc1cccc([As](=O)(O)O)c1`, inactive: -6.05%.
On to `COP(=O)(OC)N1CC1c1ccccc1` (centres undefined), for which the inhibition was inactive: 4.76%.
Take `CCCCOc1ccc(C(=O)NCC2(N3CCCCC3)CCCCC2)cc1OC`: the inhibition was inactive: 1.36%.
Regarding `Cc1cc(SC(NC(=O)c2ccccc2)C(Cl)(Cl)Cl)nc(C(C)C)n1` (centres undefined), the inhibition is inactive: -5.15%.
On to `CCOC(=O)Nc1ccc([As](=O)(O)O)c(O)c1`, for which the inhibition is inactive: 3.16%.
To `O=C(O)C(O)c1ccc(N(CCCl)CCCl)cc1` (centres undefined) belongs inactive: 0.21%.
Turning to `CC1CCNP(=O)(N(CCCl)CCCl)O1` (centres undefined), the inhibition is inactive: -1.02%.
In the case of `Nc1cccc([As](=O)(O)c2ccccc2)c1` it was inactive: -2.99%.
In the case of `Cc1ccc(OCC(=O)OC2CN3CCC2CC3)cc1` (centres undefined) it was inactive: 0.88%; in that of `O=[As](O)(c1cccs1)c1cccs1`, inactive: -6.59%; in that of `O=P1(Nc2ccc(Br)cn2)COc2ccccc2OC1`, inactive: -8.02%.
Take `NS(=O)(=O)c1cccc(NC(=O)COC(=O)C(O)(c2ccccc2)c2ccccc2)c1`: the inhibition is inactive: 2.35%.
Turning to `Cc1ccc(S(=O)(=O)N(CCCN)CCCc2c(C)nc(N)[nH]c2=O)cc1`, the inhibition was inactive: -13.2%.
For the compound `O=P1(Nc2ncccn2)COc2ccccc2OC1`, the inhibition is inactive: -1.86%.
To `CN(C)C1(CNC(=O)c2ccc(S(C)(=O)=O)cc2)CCCCC1` belongs inactive: -7.74%.
For `O=C(/C=C/c1ccccc1)OC1CN2CCC1CC2` (centres undefined), the inhibition was inactive: 5.92%.
In the case of `CCCC1OP(=O)(Nc2ccccc2)OCC1CC` (centres undefined), the inhibition was inactive: -10.9%.
Consider `Cc1nn(-c2ccccc2)c2c1P(=O)(N1CCOCC1)N(C)C(c1ccccc1)=N2` (centres undefined), for which the inhibition was inactive: 1.65%.
To `CC1CCC(C(C)C)C(OP(=O)(Nc2ccccn2)c2ccccc2)C1` (centres undefined) belongs inactive: 5.11%.
For `Cc1ccc(C(=O)OC2CN3CCC2CC3)cc1` (centres undefined), the inhibition was inactive: -1.87%.
For the compound `CC(C)/C=N\N=C(\N)N[N+](=O)[O-]`, the inhibition is inactive: 4.89%.
Regarding `CC1(CBr)Cn2c(nc3ccccc3c2=O)S1` (centres undefined), the inhibition was inactive: -4.42%.
In the case of `COc1ccccc1CNC(=O)COC(=O)C(O)(c1ccccc1)c1ccccc1` it was inactive: 10.6%; in that of `O=P1(N(CCCl)CCCl)NCCC(C(F)(F)F)O1` (centres undefined), inactive: 7.31%.
To `Clc1n[nH]nc1-c1nn[nH][15n]1` belongs inactive: 2.84%; to `CC(C)(C)C(=O)NC(Sc1ncccn1)C(Cl)(Cl)Cl` (centres undefined), inactive: 7.16%.
On to `O=P1(Nc2ccccn2)COc2ccccc2OC1`, for which the inhibition is inactive: -10.6%.
In the case of `CCC1=CC2Cc3nc4ccc(Cl)cc4c(N)c3C(C1)C2` (centres undefined) it was inactive: 1.48%; in that of `CCOP(=O)(NC(=NC(C)c1ccccc1)NC(C)c1ccccc1)OCC` (centres undefined), inactive: -12.3%.
To `CCOP(=O)(Nc1ccc(C)cn1)OCC` belongs inactive: -8.4%; to `CN(CCCl)Cc1cc(Cl)c(NC2=NCCN2)c(Cl)c1`, inactive: 0.34%.
Take `COc1cc(C2NCCC3(OCCO3)C2(C)C)cc(OC)c1OC` (centres undefined): the inhibition was inactive: -12.3%.
Take `CCOP(=O)(Nc1cccc2ccccc12)OCC`: the inhibition is inactive: -6.06%.
For `Cc1ccc(NCCc2c([N+](=O)[O-])cc([N+](=O)[O-])cc2[N+](=O)[O-])cc1`, the inhibition is inactive: 4.05%.
Regarding `Nc1cccc2c([As](=O)(O)O)cccc12`, the inhibition is inactive: 16.8%.
In the case of `CCCOP(=S)(Nc1nc(N)cc(=O)[nH]1)OCCC` it was inactive: 2.51%; in that of `Cc1cccc(OCC(=O)OC2CN3CCC2CC3)c1` (centres undefined), inactive: -2.71%.
Consider `O=[As](O)(c1cccc(O)c1)c1cccc(O)c1`, for which the inhibition is inactive: 5.44%.
For the compound `O=C(OC1CN2CCC1CC2)c1ccc(Cl)cc1` (centres undefined), the inhibition was inactive: 1.54%.
Consider `O=[As](O)(O)c1cccnc1`, for which the inhibition was inactive: 9.62%.
In the case of `COc1cc(C(=O)NCC2(N3CCOCC3)CCCCC2)cc(Cl)c1OC(C)C`, the inhibition is inactive: -2.8%.
As to `CS(=O)(=O)c1ccc(Cl)c(NC(=O)COC(=O)C(O)(c2ccccc2)c2ccccc2)c1`, the inhibition was inactive: -17.2%.
Regarding `N#CCCN(C(=O)COC(=O)C(O)(c1ccccc1)c1ccccc1)c1ccc(F)cc1`, the inhibition was inactive: 0.58%.
Take `CCOP1(=S)c2c(C)nn(CCC#N)c2N=C(c2ccc(F)cc2)N1C` (centres undefined): the inhibition was inactive: 7.37%.
To `CN(C(=O)Cc1ccccc1)[C@@H]1CC[C@]2(CCCO2)C[C@H]1N1CCCC1` belongs inactive: -16.2%.
`O=[N+]([O-])c1ccc2c(c1)nnn2O`: the inhibition was inactive: -10.8%.
Consider `CN(C)C(=O)c1cc([N+](=O)[O-])cc2c1-c1c(cc([N+](=O)[O-])cc1[N+](=O)[O-])C2=O`, for which the inhibition is active: 34.3%.
`CN(C(=O)Cc1ccc(Cl)c(Cl)c1)[C@H]1CC[C@@]2(CCCO2)C[C@@H]1N1CCCC1`: the inhibition was inactive: -7.07%.
On to `NC(=O)Nc1ccc([As](=O)(O)O)cc1`, for which the inhibition is inactive: 5.59%.
As for `Nc1ccccc1[As](=O)(O)c1ccccc1`, the inhibition is inactive: 3.16%.
On to `O=C(O)COc1ccc([As](=O)(O)O)cc1[N+](=O)[O-]`, for which the inhibition is inactive: -7.58%.
`CCOP1(=S)c2c(C)nn(CCC#N)c2N=C(c2ccccc2F)N1C` (centres undefined): the inhibition is inactive: 11.1%.
As to `O=P(Nc1nccs1)(Oc1ccccc1)Oc1ccccc1`, the inhibition is inactive: 3.31%.
Regarding `O=P(Nc1nccs1)(c1ccccc1)c1nc2ccccc2s1` (centres undefined), the inhibition was inactive: 17.8%.
In the case of `CS(=O)(=O)c1cc([N+](=O)[O-])c2no[n+]([O-])c2c1` it was inactive: 11.2%; in that of `CC(NC(=O)COC(=O)C(O)(c1ccccc1)c1ccccc1)c1ccccc1` (centres undefined), inactive: 7.5%; in that of `Cc1ccccc1OP(=O)(Nc1ccccn1)Oc1ccccc1C`, inactive: -8.47%.
Turning to `O=c1c2cc([N+](=O)[O-])ccc2[nH]c2c([N+](=O)[O-])cc([N+](=O)[O-])cc12`, the inhibition was inactive: -2%.
In the case of `CN(C)C(=O)Oc1noc2ccccc12` it was inactive: 5.92%; in that of `O=C(OC1CN2CCC1CC2)c1ccccc1` (centres undefined), inactive: -3.84%.
Consider `CCC(=O)N1C2C3N(C(=O)CC)C1C1N(C(=O)CC)C(C(N1C(=O)CC)N3C(=O)CC)N2C(=O)CC`, for which the inhibition was inactive: -2.08%.
In the case of `COC(=O)c1cc2c(s1)N=C(c1ccccc1)N(C)P2(=O)N1CCOCC1` (centres undefined) it was inactive: -2.84%; in that of `CC(=O)NC(SC(=S)N(CC(C)C)CC(C)C)C(Cl)(Cl)Cl` (centres undefined), inactive: 1.47%.
As to `Cc1ccc(OP(=O)(Nc2ccccn2)Oc2ccc(C)cc2)cc1`, the inhibition is inactive: -4.4%.

One may read the inhibition as the change of the read-out against control, counted positive when it falls.
